Laboratory results taken from patent publication US20230051872A1, “Multivalent D-Peptidic Compounds for Target Proteins” (Reflexion Pharmaceuticals, Inc., priority 2019, published 2023).
Numbering of substitutions follows the chain as printed.

The chains behind the UniProt entries cited, without tags or fusion partners. Residues count along the entry.
UniProt Q15116, 25-167 limits assumed: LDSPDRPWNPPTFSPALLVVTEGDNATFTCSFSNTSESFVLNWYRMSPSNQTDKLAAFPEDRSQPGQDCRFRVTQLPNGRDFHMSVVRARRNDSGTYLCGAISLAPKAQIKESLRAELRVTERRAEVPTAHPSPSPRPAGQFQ

B1: 977297 (designed binder)
chain: TIDQWLLKNAKEDAIAELKKAGITSDLYFNWINVAGSVSSVNYHKNFILKAHA
modifications: D-protein
B2: 977298 (designed binder)
chain: B1 chain with F47Y
modifications: D-protein
B3: 977299 (designed binder)
chain: B1 chain with V34D, G36S, Y43F, F47Y
modifications: D-protein
B4: 977979 (designed binder)
chain: B1 chain with G36S, Y43F, F47Y
modifications: D-protein

Each molecule was assayed against PD-1 (Homo sapiens, UniProt Q15116) (assay: Surface plasmon resonance (SPR) binding affinity to PD-1). Settings: read-out: Binding Affinity KD; Table 2, variant D-peptidic domains, target protein PD-1.
Design: purchased R&D Systems 1086-PD-050

First: tidqwllknakedaiaelkkaGitsdlyfnwindassvssvnfhknyilkaha [Compound 977299]
Second: tidqwllknakedaiaelkkaGitsdlyfnwinvaGsvssvnyhknfilkaha [Compound 977297]
The Kd of the first is 2.2-fold higher: 6480 nM for the first, 2950 nM for the second. The second binds more tightly here.

Going from “tidqwllknakedaiaelkkaGitsdlyfnwinvaGsvssvnyhknyilkaha [Compound 977298]” to “tidqwllknakedaiaelkkaGitsdlyfnwinvassvssvnfhknyilkaha [Compound 977979]”, the Kd falls from 871 nM to 536 nM (1.6-fold). The second binds more tightly here.

These molecules were tested against Human PD-1-Fc (R&D Systems cat #1086-PD-050), biotinylated (human) (UniProt Q15116) (assay: SPR (Table 2)). Settings: not given.

Compared with B1, B2 is 3.4-fold lower in Kd: 2950 nM for the first, 871 nM for the second.

Compared with B3, B4 is 12-fold lower in Kd: 6480 nM for the first, 536 nM for the second.
